Results: patent publication US6770442B2, “Methods for modulating the solubility of synthetic polymers” (Boston Probes, Inc., priority 1998, dated 2004)

Settings: for solubility (concentration at which soluble / not soluble): stock PNA solution for labeling

Row | Substance | solubility (concentration at which soluble / not soluble) [OD/μL] | solubility (at pH 8.5)
1 | H-OE-TTA-GGG-TTA-GGG-TTA-GGG-EE-NH2 | ≥ 0.05 | –
2 | H-OO-TTA-GGG-TTA-GGG-TTA-GGG-NH2 | < 0.05 | extremely insoluble
